The values below come from patent US20140227208A1, “COSMETIC COMPOSITIONS CONTAINING SUBSTITUTED AZOLE AND METHODS FOR ALLEVIATING MECHANICALLY-INDUCED SKIN INFLAMMATION” (The Procter & Gamble Company, priority 2013, published 2014).

The chains behind the UniProt entries cited, without tags or fusion partners.
UniProt P08684, whole entry: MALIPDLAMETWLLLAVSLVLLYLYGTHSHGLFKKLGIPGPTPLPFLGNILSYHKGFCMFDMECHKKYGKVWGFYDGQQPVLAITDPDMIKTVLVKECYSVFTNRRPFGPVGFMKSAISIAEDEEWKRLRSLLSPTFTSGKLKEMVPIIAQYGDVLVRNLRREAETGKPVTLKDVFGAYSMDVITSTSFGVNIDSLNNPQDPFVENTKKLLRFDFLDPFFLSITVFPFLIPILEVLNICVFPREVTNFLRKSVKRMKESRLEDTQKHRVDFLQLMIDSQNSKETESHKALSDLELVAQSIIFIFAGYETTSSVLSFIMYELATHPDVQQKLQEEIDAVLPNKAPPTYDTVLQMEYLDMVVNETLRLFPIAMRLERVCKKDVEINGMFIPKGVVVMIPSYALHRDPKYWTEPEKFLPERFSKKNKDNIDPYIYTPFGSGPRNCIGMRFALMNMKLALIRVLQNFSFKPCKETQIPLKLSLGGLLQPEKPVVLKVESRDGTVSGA

In general, IC50 refers to the concentration that gives 50% inhibition.

For this data set, the target named is CYP3A4 (Homo sapiens, UniProt P08684). The data set is described as follows: In vitro CYP/CYP3A4 inhibition assay (P450-GLO Assay kit, Promega).

With `Nc1ncn(Cc2ccccc2)c2ncnc1-2`, where the note is “human recombinant CYP3A4”, the “Hit / no hit for inhibition of CYP3A4” value is listed as “no hit (weak/no inhibition (IC50 value>10 μM))”. Moreover, the IC50 (read-out: IC50 (uM), CYP3A4 inhibition, human recombinant CYP3A4) was greater than 10 µM.
